This is a selection; strong and weak results do not stand in their true shares. Results filed as inconclusive are left out. The source made the active and inactive calls. Calls follow the shape of the dose curve; as a rule, active = well fitted inhibition curve with a large enough effect; inconclusive = small, poorly fitted or top-dose-only effect, or effect the other way, or another doubt; inactive = no such curve, though single readings can be large or run the other way.
% is scaled to controls: 0 for no effect and ±100 for the full control effect.

A short description of this assay: Nrf2 qHTS screen for inhibitors: counterscreen for cytotoxicity. As to conditions: A549 ARE-Fluc cells, CellTiter-Fluor viability, 18-24 h; at 46 µM (top of the series). From the text:
NIH Molecular Libraries Probe Production Network [MLPCN]
NIH Chemical Genomics Center [NCGC]
Assay Provider: Shyam Biswal, Johns Hopkins University
Nrf2 is a transcription factor that maintains cellular redox homoestasis and protects cells from xenobiotics. Nrf2 binds to the antioxidant response element (ARE) to induce gene expression of a broad spectrum of genes that encode for antioxidants. […] Finding a small molecule that act as an inhibitor of Nrf2 function would represent a novel therapeutic target that could lead to improvement in survival of patients undergoing chemo- and/or radio- therapy.
So here we implemented a counterscreen to weed out the cytotoxic compounds.
1. Shibata, T., et al., Genetic Alteration of Keap1 Confers Constitutive Nrf2 Activation and Resistance to Chemotherapy in Gallbladder Cancer. Gastroenterology, 2008.
2. Sjoblom, T., et al., The consensus coding sequences of human breast and colorectal cancers. Science, 2006. 314(5797): p. 268-74.
NCGC Assay Protocol Summary:
A concentration-response assay was performed with A549 ARE_Fluc cells which are suspended in 5% FBS OPTI-MEM. Five uL were dispensed into 1536-well white TC-treated plate using the Kalypsys dispenser to achieve a density of 5000 cells/well in all columns except column 1. The plate is incubated at 37deg C at 5% CO2 for 2 hours before 23 nL of compounds are added with the Kalypsys pin tool equipped with a 1,536-pin array containing 10-nL slotted pins (FP1S10, 0.457-mm diameter, 50.8 mm long; V&P Scientific). The control compounds Budesonide and Staurosporine are both added at a concentration of 2mM and Budesonide is also added as a 1:10 titration, starting at 200uM, to achieve dose-response. After an 18-24 hour incubation at 37deg C at 5% CO2, 5ul of medium is added to column 1. Afterwards 1ul of 5x of CellTiter-Fluor (Promega) is added to every well. The plate is then incubated at 37deg C at 5% CO2 for 30 minutes before they are read on the ViewLux (Perkin Elmer) for a fluorescent read Ex=405(10)/Em=525(10) for a 3 second exposure, 2x binning, and high gain. Then 3 uL of 3x BugLite is dispensed into all wells and the plate is incubated at ambient room temperature for 15 minutes. Afterwards another ViewLux read is performed using the clear filter to get a luminescent read with the settings of 40 second exposure, 2x binning, and high gain. Cytotoxicity is assessed through the first fluorescent read and then biochemical activity against Nrf2 is measured in the luminescent read.
Background: qHTS replaces the single test concentration by a dilution series.
For the compound `CN1CCCCC1COC(=O)C1(O)c2ccccc2CCc2ccccc21` (stereo not drawn), the activity change, negative = cytotoxicity is inactive: -19%.
In the case of `CCN(CC)CCCOC(=O)C(O)(c1ccccc1)c1ccccc1`, the activity change, negative = cytotoxicity is inactive: 9.91%.
Next, `O=C(OCCCN1CCCC1)C(O)(c1ccccc1)C1CCCCC1` (stereo not drawn): inactive: -0.0421%; `CCN(CC)CC(O)COC(=O)C(O)(c1ccccc1)C1CCCCC1` (stereo not drawn): inactive: -3.41%; `CN(C)CCOC(=O)C(O)(c1ccccc1)C1CCCC1` (stereo not drawn): inactive: -5.22%.
In the case of `O=C(OCCN1CCN(CCOCc2ccccc2)CC1)C(O)(c1ccccc1)c1ccccc1`, the activity change, negative = cytotoxicity was inactive: -11.6%.
Turning to `CCN(CC)CCCOC(=O)C(O)(c1ccccc1)C1CCCCC1` (stereo not drawn), the activity change, negative = cytotoxicity is inactive: -0.681%.
The same measure for `O=[N+]([O-])c1ccc(OP2(=O)COCCO2)cc1` (stereo not drawn): inactive: 8.08%.

For the origin of these results see PubChem BioAssay AID504648 (National Center for Advancing Translational Sciences (NCATS), 2011).
